This note sets out measurements from publication PMC4909612 (EBioMedicine, 2016).

Assay [1] deals with human PDGFR-β (Met 1-Lys 531) (Homo sapiens, UniProt P09619). As to the kind of experiment: Biacore T200 SPR binding to immobilised PDGFR-β extracellular domain.
Assay [2] deals with human PDGFR-β (Met 1-Lys 531) with the Phe136/Ala136 and Phe138/Ala138 mutations (Homo sapiens, UniProt P09619, F136A/F138A). As to the kind of experiment: Biacore SPR binding to mutated PDGFR-β. A general note: Surface plasmon resonance follows binding to a sensor surface in real time, without labels.

With “PDGF-BB: platelet-derived growth factor ligand of PDGFR-β”, the “binding to wild-type PDGFR-β” value in assay [1] is on record as “firmly bind”. In assay [2], the “binding to Phe136/Ala136 and Phe138/Ala138 mutated forms of PDGFR-β” value is on record as “minimally bound”.
